Laboratory results taken from paper PMC9837035 (Nature Communications, 2023).
Where “and” joins values, the source holds several entries; their conditions need not be identical. Equal values may be shown once.

Tests used:
NSD2 (T1150A) [1] = target: T1, NSD2 (T1150A) (Homo sapiens, UniProt O96028, T1150A); assay: biochemical
T1 sequence (O96028 1-1365 T1150A): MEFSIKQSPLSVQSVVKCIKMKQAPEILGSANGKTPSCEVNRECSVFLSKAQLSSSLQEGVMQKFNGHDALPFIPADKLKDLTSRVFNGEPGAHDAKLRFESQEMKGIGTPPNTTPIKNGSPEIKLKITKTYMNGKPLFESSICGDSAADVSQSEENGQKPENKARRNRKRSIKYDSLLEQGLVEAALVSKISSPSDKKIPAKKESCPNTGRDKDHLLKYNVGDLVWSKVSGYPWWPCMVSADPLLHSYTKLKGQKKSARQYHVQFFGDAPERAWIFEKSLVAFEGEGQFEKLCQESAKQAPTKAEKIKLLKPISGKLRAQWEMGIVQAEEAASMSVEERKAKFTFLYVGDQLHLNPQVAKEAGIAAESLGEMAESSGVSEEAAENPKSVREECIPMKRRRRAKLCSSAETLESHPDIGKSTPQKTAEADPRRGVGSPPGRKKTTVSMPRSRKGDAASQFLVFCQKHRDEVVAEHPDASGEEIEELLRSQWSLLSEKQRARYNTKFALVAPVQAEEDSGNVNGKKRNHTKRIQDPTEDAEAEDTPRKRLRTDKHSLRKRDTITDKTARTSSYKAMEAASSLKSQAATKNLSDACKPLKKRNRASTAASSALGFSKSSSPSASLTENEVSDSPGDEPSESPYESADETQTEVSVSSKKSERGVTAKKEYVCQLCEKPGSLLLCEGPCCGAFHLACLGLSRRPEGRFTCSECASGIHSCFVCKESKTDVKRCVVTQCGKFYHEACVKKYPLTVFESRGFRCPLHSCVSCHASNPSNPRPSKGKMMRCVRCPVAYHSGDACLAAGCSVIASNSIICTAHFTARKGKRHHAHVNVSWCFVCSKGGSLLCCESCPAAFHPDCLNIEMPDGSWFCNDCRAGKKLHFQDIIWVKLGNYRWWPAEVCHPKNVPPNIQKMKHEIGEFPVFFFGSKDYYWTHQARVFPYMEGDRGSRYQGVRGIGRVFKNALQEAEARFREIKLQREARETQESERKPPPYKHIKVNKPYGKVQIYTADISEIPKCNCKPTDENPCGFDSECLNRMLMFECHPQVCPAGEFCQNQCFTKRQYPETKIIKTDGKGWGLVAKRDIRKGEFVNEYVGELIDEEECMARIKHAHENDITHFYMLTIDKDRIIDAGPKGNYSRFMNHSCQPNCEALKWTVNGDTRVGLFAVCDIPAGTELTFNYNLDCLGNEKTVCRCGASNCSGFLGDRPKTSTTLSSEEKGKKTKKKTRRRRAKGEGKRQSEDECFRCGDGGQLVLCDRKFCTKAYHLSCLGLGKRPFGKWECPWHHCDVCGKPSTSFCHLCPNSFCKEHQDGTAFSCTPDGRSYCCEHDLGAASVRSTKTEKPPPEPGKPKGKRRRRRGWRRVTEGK

NSD2 (T1150A) [2] = target: T1, NSD2 (T1150A); assay: Radioisotope-based methyltransferase assay (selectivity); settings: 1 μM SAM
[3] = Caco-2 permeability assay; type: in vitro ADME; settings: human, read-out: Efflux ratio (B to A/A to B)
G9a = target: T2, G9a (Homo sapiens, UniProt Q96KQ7); assay: Radioisotope-based methyltransferase assay (selectivity)
T2 sequence (Q96KQ7 1-1210): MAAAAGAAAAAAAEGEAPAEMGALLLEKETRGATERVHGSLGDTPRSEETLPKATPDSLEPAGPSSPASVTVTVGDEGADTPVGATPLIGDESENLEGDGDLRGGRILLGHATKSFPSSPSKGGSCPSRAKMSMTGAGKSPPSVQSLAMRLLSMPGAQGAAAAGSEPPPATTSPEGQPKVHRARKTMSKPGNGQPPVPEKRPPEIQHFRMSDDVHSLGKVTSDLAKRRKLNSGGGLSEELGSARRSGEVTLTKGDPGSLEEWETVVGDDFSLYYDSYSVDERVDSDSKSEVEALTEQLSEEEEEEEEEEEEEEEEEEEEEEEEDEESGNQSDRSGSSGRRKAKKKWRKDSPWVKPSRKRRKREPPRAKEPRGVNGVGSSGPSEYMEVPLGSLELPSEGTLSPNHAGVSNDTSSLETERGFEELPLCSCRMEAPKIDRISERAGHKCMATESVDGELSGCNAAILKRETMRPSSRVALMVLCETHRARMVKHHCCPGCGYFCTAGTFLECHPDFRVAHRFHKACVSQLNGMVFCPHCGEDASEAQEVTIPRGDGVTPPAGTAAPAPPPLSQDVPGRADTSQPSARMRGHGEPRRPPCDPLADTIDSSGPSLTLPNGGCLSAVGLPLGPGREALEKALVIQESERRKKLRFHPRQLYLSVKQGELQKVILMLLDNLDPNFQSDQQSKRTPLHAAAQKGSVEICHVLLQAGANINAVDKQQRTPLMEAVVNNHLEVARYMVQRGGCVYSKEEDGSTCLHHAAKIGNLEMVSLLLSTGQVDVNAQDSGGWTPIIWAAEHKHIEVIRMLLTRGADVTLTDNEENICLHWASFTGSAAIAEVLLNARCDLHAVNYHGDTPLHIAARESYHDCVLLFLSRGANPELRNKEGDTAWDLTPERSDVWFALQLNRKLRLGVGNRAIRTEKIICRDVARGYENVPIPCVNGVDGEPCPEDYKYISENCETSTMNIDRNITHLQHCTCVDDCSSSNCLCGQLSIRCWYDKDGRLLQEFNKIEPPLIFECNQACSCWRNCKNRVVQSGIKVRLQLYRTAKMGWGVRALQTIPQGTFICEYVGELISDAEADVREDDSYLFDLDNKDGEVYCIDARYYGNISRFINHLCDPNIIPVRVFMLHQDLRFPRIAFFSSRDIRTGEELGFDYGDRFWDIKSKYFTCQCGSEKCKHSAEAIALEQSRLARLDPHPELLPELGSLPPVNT

[4] = Hematological and hepatic parameters, 2-week repeated oral dosing; type: in vivo; settings: rats
HUDEP-2 cells = assay: RNA-seq analysis of HUDEP-2 cells; type: cell-based, human
Description: Total RNAs were extracted using an RNeasy Plus Mini Kit (QIAGEN). RNA-seq experiments were performed by GENEWIZ or Rhelixa. Gene Ontology (GO) analysis in Supplementary Fig. 7a, the statistical test was performed by Wallenius in goseq software. In Supplementary Tables 8(1-3), the statistical test (adjp) was determined using multiple comparisons analysis, Benjamini-Hochberg adjusted FDR test of the default of AltAnalyze (Ver. 2.0).

| SMILES | IC50 (NSD2 (T1150A) [1]) | IC50 (NSD2 (T1150A) [2]) | efflux ratio [3] | inhibitory activity against G9a and GLP relative to other methyltransferases (G9a) | A/G ([4]; RK-701 10 mg/kg for two weeks, individual animals 1-5, 10 mg/kg) | A/G ([4]; RK-701 30 mg/kg for two weeks, individual animals 1-5, 30 mg/kg) | A/G ([4]; RK-701 100 mg/kg for two weeks, individual animals 1-5, 100 mg/kg) | A/G ([4]; two weeks, 10 mg/kg) | A/G ([4]; two weeks, 30 mg/kg) | A/G ([4]; two weeks, 100 mg/kg) | FoldChange KDM1A (HUDEP-2 cells) |
| --- | --- | --- | --- | --- | --- | --- | --- | --- | --- | --- | --- |
| Nc1ncnc2c1ncn2[C@@H]1O[C@H](CSCC[C@H](N)C(=O)O)[C@@H](O)[C@H]1O [SAH, S-(5'-Adenosyl)-L-homocysteine, reference compound] | 7.18 µM | 7.2 µM | – | – | – | – | – | – | – | – | – |
| Cc1c(C(=O)NC(CCC2CC2)C(=O)Nc2ccc(C#N)cc2)[nH]c2c1C(=O)CC(C)(C)C2 (centres unmarked) [RK-701] | – | – | 3.6 | over 1,000 fold | 1.3 and 1.4 and 1.6 and 1.5 | 1.4 and 1.3 | 1.5 and 1.3 and 1.4 | 1.5 ± 0.1 | 1.4 ± 0.0 | 1.4 ± 0.1 | 0.88±0.00 |
